Assay results published in patent publication US9546164B2 (GENENTECH, INC., priority 2013, dated 2017).
Where a name gives a salt, the structure may show the parent alone.

Chains of the proteins cited; added tags and fusions are not shown. A line that says so, or that is headed by a name, gives the form on record, which may keep a tag or linker.
UniProt Q15858, other isoform, or with tags, fused parts or gaps: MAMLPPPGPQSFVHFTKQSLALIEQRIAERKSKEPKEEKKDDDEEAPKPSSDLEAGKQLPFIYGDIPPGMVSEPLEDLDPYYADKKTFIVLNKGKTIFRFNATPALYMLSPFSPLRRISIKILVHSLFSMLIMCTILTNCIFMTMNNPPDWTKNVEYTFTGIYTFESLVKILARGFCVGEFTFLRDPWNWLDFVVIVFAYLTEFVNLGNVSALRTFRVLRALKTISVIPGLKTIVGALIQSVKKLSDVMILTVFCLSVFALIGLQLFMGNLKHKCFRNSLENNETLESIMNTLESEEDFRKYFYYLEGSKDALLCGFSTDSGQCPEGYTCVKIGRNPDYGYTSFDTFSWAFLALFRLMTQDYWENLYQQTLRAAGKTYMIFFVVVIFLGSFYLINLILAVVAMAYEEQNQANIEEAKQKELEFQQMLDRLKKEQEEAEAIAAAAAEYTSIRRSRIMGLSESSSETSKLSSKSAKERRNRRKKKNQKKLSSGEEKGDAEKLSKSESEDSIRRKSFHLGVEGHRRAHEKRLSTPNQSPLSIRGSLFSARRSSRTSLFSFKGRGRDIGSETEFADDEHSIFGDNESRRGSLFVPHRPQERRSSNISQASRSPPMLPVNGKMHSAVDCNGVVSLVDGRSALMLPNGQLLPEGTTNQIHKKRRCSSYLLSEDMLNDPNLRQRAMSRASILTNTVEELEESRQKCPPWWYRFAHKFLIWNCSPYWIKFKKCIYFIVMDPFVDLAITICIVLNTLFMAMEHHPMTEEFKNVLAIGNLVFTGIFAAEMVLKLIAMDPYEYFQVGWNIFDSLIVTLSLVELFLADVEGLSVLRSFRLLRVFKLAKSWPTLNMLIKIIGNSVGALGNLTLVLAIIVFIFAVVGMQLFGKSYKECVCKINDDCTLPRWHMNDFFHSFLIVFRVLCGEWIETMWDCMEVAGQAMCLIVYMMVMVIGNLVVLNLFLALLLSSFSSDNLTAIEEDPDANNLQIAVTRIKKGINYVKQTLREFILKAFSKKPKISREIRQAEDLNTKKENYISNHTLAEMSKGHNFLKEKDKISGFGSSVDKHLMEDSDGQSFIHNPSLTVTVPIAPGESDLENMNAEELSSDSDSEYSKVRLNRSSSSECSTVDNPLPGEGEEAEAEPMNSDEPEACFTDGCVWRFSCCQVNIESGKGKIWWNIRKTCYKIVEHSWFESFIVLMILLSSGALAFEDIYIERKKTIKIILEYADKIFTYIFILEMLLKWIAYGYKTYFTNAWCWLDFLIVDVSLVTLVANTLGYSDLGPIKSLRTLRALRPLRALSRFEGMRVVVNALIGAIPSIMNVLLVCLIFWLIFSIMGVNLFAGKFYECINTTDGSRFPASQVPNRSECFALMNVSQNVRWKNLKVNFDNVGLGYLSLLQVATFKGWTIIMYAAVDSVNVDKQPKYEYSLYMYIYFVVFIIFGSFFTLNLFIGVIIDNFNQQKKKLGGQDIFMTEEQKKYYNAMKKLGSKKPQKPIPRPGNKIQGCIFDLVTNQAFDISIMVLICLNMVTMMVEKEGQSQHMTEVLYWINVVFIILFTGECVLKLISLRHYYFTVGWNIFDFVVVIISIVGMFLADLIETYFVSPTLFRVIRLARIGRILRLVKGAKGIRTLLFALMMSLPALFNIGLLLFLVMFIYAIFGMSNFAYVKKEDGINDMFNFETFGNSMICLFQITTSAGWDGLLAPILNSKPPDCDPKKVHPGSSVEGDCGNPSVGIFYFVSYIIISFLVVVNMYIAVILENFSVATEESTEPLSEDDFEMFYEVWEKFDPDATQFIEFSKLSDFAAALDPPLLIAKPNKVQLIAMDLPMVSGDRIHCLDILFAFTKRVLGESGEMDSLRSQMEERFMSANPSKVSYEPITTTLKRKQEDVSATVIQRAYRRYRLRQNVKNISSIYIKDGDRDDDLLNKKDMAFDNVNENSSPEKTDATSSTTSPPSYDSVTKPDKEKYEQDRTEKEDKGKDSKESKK

Target: hNav1.7 (Homo sapiens (Human), UniProt Q15858)
Assay: Tritiated sulfonamide competitive binding to membranes from cells expressing hNav1.7 and the β1 subunit;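 further: Filter-bound radioactivity counted by liquid scintillation, nonspecific binding defined with excess unlabelled ligand, IC50 fitted to percent inhibition of specific binding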

Structure (SMILES)	IC50
COCC1(c2ccc(F)cc2)CCN(Cc2cc(F)c(C(=O)NS(C)(=O)=O)cc2C2CC2)CC1 [Example 515, 5-cyclopropyl-2-fluoro-4-((4-(4-fluorophenyl)-4-(methoxymethyl)piperidin-1-yl)methyl)-N-(methylsulfonyl)benzamide, trifluoroacetic acid salt]	384 nM
O=C(NS(=O)(=O)N1CCC1)c1cc(C2CC2)c(O[C@@H]2CCCN(c3ccccc3)C2)cc1F [Example 41, (R)—N-(azetidin-1-ylsulfonyl)-5-cyclopropyl-2-fluoro-4-((1-phenylpiperidin-3-yl)oxy)benzamide]	13.4 nM
COCC1(c2ccc(F)cc2)CCN(Cc2cc(F)c(C(=O)NS(=O)(=O)C3CC3)cc2C2CC2)CC1 [Example 516, 5-cyclopropyl-N-(cyclopropylsulfonyl)-2-fluoro-4-((4-(4-fluorophenyl)-4-(methoxymethyl)piperidin-1-yl)methyl)benzamide, trifluoroacetic acid salt]	213 nM
